# Assay results from patent US20220144847A1, “HETEROCYCLIC COMPOUND, PHARMACEUTICAL COMPOSITION COMPRISING SAME, PREPARATION METHOD THEREFOR, AND USE THEREOF” (Sichuan Kelun-Biotech Biopharmaceutical Co., Ltd., priority 2019, published 2022).
# Amino acid sequences for entries named in this document (tags omitted). Residues count along the entry.
# UniProt P07949, 29-1114 V804M: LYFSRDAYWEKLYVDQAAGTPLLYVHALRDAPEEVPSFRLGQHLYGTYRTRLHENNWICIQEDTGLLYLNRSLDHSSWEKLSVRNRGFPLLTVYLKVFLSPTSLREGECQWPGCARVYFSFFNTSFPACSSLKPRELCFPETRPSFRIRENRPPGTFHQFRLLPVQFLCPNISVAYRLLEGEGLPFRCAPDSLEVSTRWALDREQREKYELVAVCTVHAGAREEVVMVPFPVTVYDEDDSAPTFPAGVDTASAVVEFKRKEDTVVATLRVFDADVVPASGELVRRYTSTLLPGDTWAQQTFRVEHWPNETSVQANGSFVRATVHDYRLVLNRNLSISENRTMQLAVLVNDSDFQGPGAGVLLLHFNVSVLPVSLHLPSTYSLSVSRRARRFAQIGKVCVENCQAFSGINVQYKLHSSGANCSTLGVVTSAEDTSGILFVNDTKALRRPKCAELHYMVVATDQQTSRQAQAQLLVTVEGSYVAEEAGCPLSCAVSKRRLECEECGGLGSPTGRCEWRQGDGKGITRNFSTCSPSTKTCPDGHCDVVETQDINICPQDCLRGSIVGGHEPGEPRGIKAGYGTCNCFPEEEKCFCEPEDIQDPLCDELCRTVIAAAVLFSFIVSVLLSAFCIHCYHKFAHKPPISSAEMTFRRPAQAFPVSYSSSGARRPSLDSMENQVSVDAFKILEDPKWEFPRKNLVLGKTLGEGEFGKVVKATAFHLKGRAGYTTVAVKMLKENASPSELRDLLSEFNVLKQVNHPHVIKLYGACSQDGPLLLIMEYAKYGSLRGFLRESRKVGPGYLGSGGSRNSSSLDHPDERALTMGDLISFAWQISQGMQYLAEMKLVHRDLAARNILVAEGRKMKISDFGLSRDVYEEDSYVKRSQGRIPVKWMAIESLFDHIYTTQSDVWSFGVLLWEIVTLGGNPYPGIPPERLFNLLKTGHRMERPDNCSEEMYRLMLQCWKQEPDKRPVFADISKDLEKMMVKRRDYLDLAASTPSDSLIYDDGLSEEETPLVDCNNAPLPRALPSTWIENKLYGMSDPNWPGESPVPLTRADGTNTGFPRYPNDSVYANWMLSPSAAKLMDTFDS
# UniProt P35968, 20-1356, species assumed: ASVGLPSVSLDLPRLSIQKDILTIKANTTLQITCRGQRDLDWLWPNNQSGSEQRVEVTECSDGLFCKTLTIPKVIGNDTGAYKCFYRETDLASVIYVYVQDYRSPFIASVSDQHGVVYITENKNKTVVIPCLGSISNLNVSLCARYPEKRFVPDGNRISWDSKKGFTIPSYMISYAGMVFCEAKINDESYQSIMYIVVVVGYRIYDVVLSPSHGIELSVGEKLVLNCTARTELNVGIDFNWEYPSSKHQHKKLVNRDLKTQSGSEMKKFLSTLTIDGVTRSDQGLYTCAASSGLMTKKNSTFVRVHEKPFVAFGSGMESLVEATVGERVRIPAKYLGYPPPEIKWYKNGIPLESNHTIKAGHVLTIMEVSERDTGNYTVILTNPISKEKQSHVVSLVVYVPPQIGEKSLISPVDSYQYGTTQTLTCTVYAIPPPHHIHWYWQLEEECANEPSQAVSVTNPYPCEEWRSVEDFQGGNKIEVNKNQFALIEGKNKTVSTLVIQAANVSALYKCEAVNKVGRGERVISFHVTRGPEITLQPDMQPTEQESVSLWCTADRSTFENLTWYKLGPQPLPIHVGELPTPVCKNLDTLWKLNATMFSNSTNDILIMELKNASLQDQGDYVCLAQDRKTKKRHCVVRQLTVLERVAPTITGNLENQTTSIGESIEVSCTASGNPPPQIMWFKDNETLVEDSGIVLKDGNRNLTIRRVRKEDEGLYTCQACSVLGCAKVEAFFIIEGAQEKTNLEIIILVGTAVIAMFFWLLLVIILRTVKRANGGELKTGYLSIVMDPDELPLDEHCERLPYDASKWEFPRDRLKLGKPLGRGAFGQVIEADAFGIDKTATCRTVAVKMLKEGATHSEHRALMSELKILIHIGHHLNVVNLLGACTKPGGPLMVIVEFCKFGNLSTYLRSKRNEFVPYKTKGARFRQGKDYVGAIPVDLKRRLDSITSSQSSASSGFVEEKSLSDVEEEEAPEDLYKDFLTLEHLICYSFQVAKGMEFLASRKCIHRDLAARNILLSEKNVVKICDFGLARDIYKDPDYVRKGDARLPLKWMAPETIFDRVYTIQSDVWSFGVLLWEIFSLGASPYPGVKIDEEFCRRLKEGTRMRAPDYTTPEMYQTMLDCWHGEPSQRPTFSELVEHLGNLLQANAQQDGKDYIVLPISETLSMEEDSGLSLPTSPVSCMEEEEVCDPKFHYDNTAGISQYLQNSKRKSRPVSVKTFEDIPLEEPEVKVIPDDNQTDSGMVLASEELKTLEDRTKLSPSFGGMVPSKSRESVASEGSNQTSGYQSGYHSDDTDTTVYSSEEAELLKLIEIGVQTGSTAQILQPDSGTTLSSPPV
# Legend:
# RET-V804M = RET-V804M (Homo sapiens, UniProt P07949, V804M); test: RET inhibition experiment (HTRF KinEASE-TK kit), mutant RET-V804M; format: biochemical; conditions: 10 nM (Table 2)
# Description: Experimental method: According to the instructions of the HTRF KinEASE-TK kit (Cisbio), the compounds of the present disclosure were tested for their inhibitory effects on the activity of wild-type RET enzyme, mutant RET enzyme (RET-V804M, RET-V804L, and RET-M918T) and fusion-type RET enzyme (RET-CCDCl6). After pre-incubation of different RET enzymes and different concentrations of the test compounds at room temperature for 30 min, a substrate and adenosine triphosphate (ATP) were added to initiate the reaction. After incubation at room temperature for 40 min, TK antibody-cryptate and streptavidin-XL665 were added, and the test was performed after incubation at room temperature for 45 min. With the solvent group (DMSO) as the negative control and the buffer group (without RET enzyme) as the blank control, the relative inhibitory activity percentages (i.e., inhibition rates) of different concentrations of the compounds were computed as per the following formula:
# (§1) Relative inhibitory activity percentage=1−(compound group of different concentrations−blank control)/(negative control−blank control)*100%
# The relative inhibitory activity percentages of different concentrations of the compounds were plotted with respect to the compound concentrations, and the curve was fitted according to a four-parameter model to compute the IC50 value as per the following formula: […]
# VEGFR2 = VEGFR2 (Homo sapiens, UniProt P35968); test: VEGFR2 inhibition experiment (HTRF KinEASE-TK kit); format: biochemical; conditions: 100 nM
# Description: Experimental method: According to the instructions of the HTRF KinEASE-TK kit (Cisbio), the compounds of the present disclosure were tested for their inhibitory effects on the VEGFR2 enzyme activity. After pre-incubation of the VEGFR2 enzyme and different concentrations of test compounds at room temperature for 30 min, a substrate and adenosine triphosphate (ATP) were added to initiate the reaction. After incubation at room temperature for 40 min, TK antibody-cryptate and streptavidin-XL665 were added, and the test was performed after incubation at room temperature for 45 min. With the solvent group (DMSO) as the negative control and the buffer group (without VEGFR2 enzyme) as the blank control, the relative inhibitory activity percentages (i.e., inhibition rates) of different concentrations of the compounds were computed as per the following formula:
# as §1
# The relative inhibitory activity percentages of different concentrations of the compounds were plotted with respect to the compound concentrations, and the curve was fitted according to a four-parameter model to compute the IC50 value as per the following formula:
# y=min+(max−min)/(1+(x/IC50)^(−Hillslope)) […]
compound,measurement,setting,value
Cc1cc(Nc2cc(C)[nH]n2)nc(-c2ccc(N3CC4CC(C3)N4Cc3ccc(-c4ccccn4)nc3)nc2)n1 [Compound 130],Inhibition rate on RET-V804M,RET-V804M,44%
same,Inhibition rate on VEGFR2,VEGFR2,63%
